{
  "sequences": {"note": "By UniProt entry, the sequences of proteins in these tests, tags left out. Where a name states a change or a piece, a line headed by the entry shows the natural chain unless it says otherwise.", "UniProt P05093": "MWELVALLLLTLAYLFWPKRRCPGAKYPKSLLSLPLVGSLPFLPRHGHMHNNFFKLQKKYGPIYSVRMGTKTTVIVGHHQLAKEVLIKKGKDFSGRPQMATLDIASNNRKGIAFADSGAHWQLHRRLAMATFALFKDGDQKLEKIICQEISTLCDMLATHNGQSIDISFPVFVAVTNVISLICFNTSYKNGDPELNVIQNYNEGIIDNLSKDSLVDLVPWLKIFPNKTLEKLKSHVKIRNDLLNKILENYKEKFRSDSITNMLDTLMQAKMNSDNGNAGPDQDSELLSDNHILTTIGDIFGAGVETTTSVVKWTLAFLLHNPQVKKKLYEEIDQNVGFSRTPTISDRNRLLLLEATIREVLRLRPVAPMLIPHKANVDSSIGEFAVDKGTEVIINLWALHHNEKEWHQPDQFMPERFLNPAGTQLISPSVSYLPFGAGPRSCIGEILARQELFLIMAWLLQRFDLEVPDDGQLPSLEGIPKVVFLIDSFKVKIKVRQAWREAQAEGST"},
  "source": "paper PMC7875674",
  "about": "(Journal of medicinal chemistry, 2020)",
  "target": "P450 17A1 (Homo sapiens, UniProt P05093)",
  "format": "binding",
  "data": [
    {"substance": "(R)-orteronel", "values": [
      {"measurement": "stopped-flow rapid-scanning UV-visible binding spectroscopy with SVD global fitt", "value": "73 ± 6", "unit": "s⁻¹"}
    ]}
  ]
}
